Assay results reported in patent US20080280877A1, “Azetidines” (Pfizer Inc, priority 2007, published 2008).

Chains of the proteins cited; added tags and fusions are not shown.
UniProt P43116, whole entry: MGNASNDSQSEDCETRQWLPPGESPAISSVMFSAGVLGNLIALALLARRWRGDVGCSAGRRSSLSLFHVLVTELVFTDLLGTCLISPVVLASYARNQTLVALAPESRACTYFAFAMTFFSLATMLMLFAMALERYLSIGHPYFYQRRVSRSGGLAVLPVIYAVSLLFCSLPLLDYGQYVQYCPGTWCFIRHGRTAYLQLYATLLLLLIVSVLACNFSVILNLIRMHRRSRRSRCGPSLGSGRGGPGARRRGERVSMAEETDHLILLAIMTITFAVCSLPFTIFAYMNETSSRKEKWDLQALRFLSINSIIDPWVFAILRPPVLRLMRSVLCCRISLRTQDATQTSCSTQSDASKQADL

Biological target: recombinant human EP-2 receptor (Homo sapiens, UniProt P43116)
Test: in vitro antagonist potency against recombinant human EP-2 receptor in CHO cells (cAMP, Protocol 1)
Format: cell-based
Conditions: read-out: EP2 Ki; functional Ki by Cheng-Prusoff from IC50; CHO cells stimulated with PGE2 (5 nM); cAMP readout

| SMILES | Ki |
| --- | --- |
| O=C(C1CCOCC1)N1CC(COc2ccc(-c3ccc(Cl)cc3)cc2)(C(=O)O)C1 | 824 nM |
| COc1ccc(-c2ccc(OCC3(C(=O)O)CN(C(=O)c4ccc(F)cc4)C3)cc2)cc1 | 2 nM |
| O=C(c1ccc(F)cc1)N1CC(COc2ccc(-c3ccc(F)c(F)c3)cc2)(C(=O)O)C1 | 4.9 nM |
| O=C(C1CCC(F)(F)CC1)N1CC(COc2ccc(-c3ccc(F)cc3)cc2)(C(=O)O)C1 | 71.3 nM |
| O=C(c1ccc(F)cc1)N1CC(COc2ccc(-c3ccccc3)cc2)(C(=O)O)C1 | 21.2 nM |
| O=C(Nc1cccc(Cl)c1Cl)N1CC(COc2cccc(Cl)c2)(C(=O)O)C1 | 707 nM |
| O=C(C1CCC(F)(F)CC1)N1CC(COc2ccc(-c3ccc(Cl)cn3)cc2)(C(=O)O)C1 | 192 nM |
| N#Cc1ccc(-c2ccc(OCC3(C(=O)O)CN(C(=O)C4CCOCC4)C3)cc2)cc1 | 388 nM |
| N#Cc1ccc(-c2ccc(OCC3(C(=O)O)CN(C(=O)C4CCC(F)(F)CC4)C3)cc2)cc1 | 24.7 nM |
